The target of this assay is MAGL (Mus musculus (Mouse), UniProt O35678). Description: in vivo. The note with it: po, read-out: MAGL % inh. 5 mg/kg (mouse).

Amino acid sequences for entries named in this document (tags omitted).
UniProt O35678, whole entry: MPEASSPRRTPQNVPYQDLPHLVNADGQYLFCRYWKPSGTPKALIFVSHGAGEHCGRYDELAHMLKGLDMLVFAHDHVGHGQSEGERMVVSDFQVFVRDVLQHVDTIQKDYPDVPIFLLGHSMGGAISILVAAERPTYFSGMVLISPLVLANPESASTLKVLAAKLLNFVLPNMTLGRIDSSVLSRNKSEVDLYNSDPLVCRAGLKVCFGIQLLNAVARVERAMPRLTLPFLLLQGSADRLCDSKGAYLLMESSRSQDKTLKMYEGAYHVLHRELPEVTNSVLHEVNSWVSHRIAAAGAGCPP

Take `O=C(O)CCNc1cc(Cl)cc(CN2CCCC23CCN(C(=O)OC(C(F)(F)F)C(F)(F)F)CC3)c1` [Example 12, 3-((3-Chloro-5-((8-(((1,1,1,3,3,3-hexafluoropropan-2-yl)oxy)carbonyl)-1,8-diazaspiro[4.5]decan-1-yl)methyl)phenyl)amino)propanoic acid]: the inhibition at 5 mg/kg was > 75%.

The values are drawn from patent publication US11059822B2, “MAGL inhibitors” (H. LUNDBECK A/S, priority 2016, dated 2021).
